{"sequences": {"note": "Sequences of proteins named here, by UniProt entry; tags and fusion partners are left off.", "UniProt Q96SB4, whole entry": "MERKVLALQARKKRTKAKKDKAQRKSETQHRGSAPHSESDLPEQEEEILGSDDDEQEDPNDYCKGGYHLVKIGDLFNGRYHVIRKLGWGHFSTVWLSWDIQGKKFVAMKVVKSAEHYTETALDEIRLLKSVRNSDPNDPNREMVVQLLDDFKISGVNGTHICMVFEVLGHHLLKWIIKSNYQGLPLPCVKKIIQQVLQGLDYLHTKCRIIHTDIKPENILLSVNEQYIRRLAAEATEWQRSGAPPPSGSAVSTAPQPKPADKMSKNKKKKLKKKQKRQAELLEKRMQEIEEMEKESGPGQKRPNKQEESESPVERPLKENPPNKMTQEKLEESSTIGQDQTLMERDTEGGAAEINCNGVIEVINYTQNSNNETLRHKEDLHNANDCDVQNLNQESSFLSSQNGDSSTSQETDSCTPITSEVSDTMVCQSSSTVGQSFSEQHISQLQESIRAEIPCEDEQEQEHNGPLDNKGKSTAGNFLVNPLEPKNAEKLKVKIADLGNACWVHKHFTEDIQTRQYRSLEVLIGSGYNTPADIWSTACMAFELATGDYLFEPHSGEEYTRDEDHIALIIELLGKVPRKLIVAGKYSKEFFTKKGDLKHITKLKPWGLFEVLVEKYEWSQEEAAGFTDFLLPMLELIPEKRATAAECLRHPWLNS"}, "source": "patent US11066363B2", "about": "“Substituted 6,11-dihydro-5H-benzo[B]carbazoles as inhibitors of ALK and SRPK” (Dana-Farber Cancer Institute, Inc., priority 2015, dated 2021)", "target": "SRPK1 (Homo sapiens (Human), UniProt Q96SB4)", "test": "SRPK1 inhibitory activity", "assay_type": "biochemical"}
{"smiles": "CCc1cc2c(cc1-c1cccc(S(=O)(=O)F)c1)C(C)(C)c1[nH]c3cc(C#N)ccc3c1C2=O", "note": "[Compound 37, 3-(3-cyano-9-ethyl-6,6-dimethyl-11-oxo-6,11-dihydro-5H-benzo[b]carbazol-8-yl)benzenesulfonyl fluoride]", "values": [{"measurement": "IC50", "value": 35.6, "unit": "nM"}]}
